## Yeast mating assay B: variants of the scFv Ab-14

Binding partner: SARS-CoV-2 spike HR2 peptide, sequence PDVDLGDISGINAS.

The variants keep the heavy chain, the linker and the frameworks of Ab-14 (scFv order VH, a (GGGGS)3 linker, VL).
VH: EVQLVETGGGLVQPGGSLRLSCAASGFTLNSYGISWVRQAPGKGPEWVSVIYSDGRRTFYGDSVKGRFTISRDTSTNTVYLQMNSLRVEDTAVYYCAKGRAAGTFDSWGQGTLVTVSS
VL: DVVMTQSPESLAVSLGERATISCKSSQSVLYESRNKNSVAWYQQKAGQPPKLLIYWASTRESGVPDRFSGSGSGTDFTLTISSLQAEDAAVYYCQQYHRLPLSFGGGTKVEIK

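The starting antibody came from a phage panning campaign against this peptide. These sequences belong to a second round, designed from the earlier measurements on random variants of the parent. Their group label is 14L_En_HC (En: ensemble of fine-tuned language models; HC: hill climbing; a sequence that several methods proposed may carry one label only). In AlphaSeq, yeast of one mating type display the scFv and yeast of the other type display the target. After mating in shaken culture at 30 °C for 16 h, diploids were selected and their barcode pairs sequenced. The ratio of observed to expected reads was calibrated, replicate by replicate, on BCL2-family standards whose Kd was known from biolayer interferometry. Mating was done six times.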

Sequences are complete VL domains. The read-out is the apparent dissociation constant on a log10 scale (nM): the lower, the stronger. Where no diploid with the target was found in that replicate, the entry reads "ND": below detection, most likely a poor binder, though not proof of it. Three control strains display no target. For all light chain designs, 4% of the pairings with them gave a signal, with a median of 2.64 and one signal in twenty below 1.59, so weak values seen in few replicates may be background. Also given: how often the same scFv was detected with the empty control strains, with their mean in brackets.

VL	log10 Kd, replicates	control signals
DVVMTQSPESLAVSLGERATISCTIGQVMMYESRNKNSVAWYQQKAGQPPKLLIYQTSTREEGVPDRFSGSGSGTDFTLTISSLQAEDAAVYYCQDYDRLPLSFGGGTKVEIK	ND / ND / 2.31 / ND / ND / ND	0 of 18
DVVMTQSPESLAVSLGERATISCTLGQFTMQLSVNKNSVAWYQQKAGQPPKLLIYDANTSGDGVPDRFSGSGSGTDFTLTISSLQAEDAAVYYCQQYDRLPLSFGGGTKVEIK	2.64 / 0.82 / 1.10 / 0.43 / 0.72 / 0.89	1 of 18 (2.74)
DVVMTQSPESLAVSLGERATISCTISQSTQMESHNKNSVAWYQQKAGQPPKLLIYDLNVRGSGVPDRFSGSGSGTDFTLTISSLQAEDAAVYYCQQYDRLPLSFGGGTKVEIK	0.63 / 0.27 / 0.50 / 0.14 / 0.56 / 0.64	1 of 18 (2.90)
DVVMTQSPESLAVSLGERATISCTISGLIMMPSRAHNSVAWYQQKAGQPPKLLIYNTSTRYQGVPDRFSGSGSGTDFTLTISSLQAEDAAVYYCQQYHRLPLSFGGGTKVEIK	1.25 / 1.56 / 0.79 / 0.60 / 1.42 / 1.01	0 of 18
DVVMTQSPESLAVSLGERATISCNVGQLMDGASRNKNSVAWYQQKAGQPPKLLIYHQSTREDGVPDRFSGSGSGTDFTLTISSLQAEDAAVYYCQHYHRLPLSFGGGTKVEIK	0.97 / 1.72 / 1.16 / 1.85 / 1.73 / 1.46	0 of 18
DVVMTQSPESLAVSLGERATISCKLSATYRYESQNKNSIAWYQQKAGQPPKLLIYEMSTREDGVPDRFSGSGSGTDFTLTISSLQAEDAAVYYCQCYHRLPLSFGGGTKVEIK	ND / ND / ND / ND / ND / ND	0 of 18
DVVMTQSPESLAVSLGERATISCKISMMSTIESIMHNSVAWYQQKAGQPPKLLIYQTETRENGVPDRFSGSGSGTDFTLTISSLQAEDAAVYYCQQYDRLPLSFGGGTKVEIK	0.83 / 0.59 / 0.96 / 1.01 / 1.43 / 1.21	2 of 18 (3.01)
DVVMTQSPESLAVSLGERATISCKLPLATMQENVSKNNVAWYQQKAGQPPKLLIYELSTRGSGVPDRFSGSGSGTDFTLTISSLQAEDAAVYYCQQYHRLPLSFGGGTKVEIK	2.63 / 2.06 / 2.84 / 2.16 / 2.22 / 1.66	2 of 18 (3.08)
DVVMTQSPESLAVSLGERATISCKLSQVTHSESRNKNSIAWYQQKAGQPPKLLIYEMVSREVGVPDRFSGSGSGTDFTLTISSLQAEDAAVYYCQQYDRLPLSFGGGTKVEIK	ND / 2.18 / 3.78 / ND / ND / 2.94	1 of 18 (1.60)
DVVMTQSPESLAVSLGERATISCALGDVTRMESNKKNSIAWYQQKAGQPPKLLIYDMSTREDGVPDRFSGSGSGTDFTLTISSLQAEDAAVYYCQQYHRLPLSFGGGTKVEIK	0.01 / 0.05 / 0.03 / -0.06 / -0.14 / 0.11	1 of 18 (2.99)
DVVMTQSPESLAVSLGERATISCKIGQLTTYHSQNGNAIAWYQQKAGQPPKLLIYQTSTREEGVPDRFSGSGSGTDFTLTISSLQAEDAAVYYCQQYHRLPLSFGGGTKVEIK	0.26 / 0.13 / 0.09 / 0.07 / 0.35 / 0.06	0 of 18
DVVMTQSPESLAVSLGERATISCIISQSALGEYHNKNSVAWYQQKAGQPPKLLIYQTSERGSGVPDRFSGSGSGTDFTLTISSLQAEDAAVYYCQQYDRLPLSFGGGTKVEIK	0.23 / 0.21 / 0.17 / 0.46 / 0.37 / 0.57	1 of 18 (2.42)
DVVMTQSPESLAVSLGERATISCMIAQALRGVGRNKNSVAWYQQKAGQPPKLLIYNAQTRESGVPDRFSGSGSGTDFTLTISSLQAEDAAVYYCQHYHRLPLSFGGGTKVEIK	ND / ND / ND / ND / 2.31 / 1.76	1 of 18 (2.57)
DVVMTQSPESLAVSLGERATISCSIYDATGMESRNKNPIAWYQQKAGQPPKLLIYDVSTRPSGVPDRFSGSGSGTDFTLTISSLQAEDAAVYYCQQYHRLPLSFGGGTKVEIK	-0.09 / -0.11 / 0.17 / -0.27 / -0.11 / 0.06	0 of 18
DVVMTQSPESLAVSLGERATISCKLYVSTMLESHNKNSIAWYQQKAGQPPKLLIYDLSTRGNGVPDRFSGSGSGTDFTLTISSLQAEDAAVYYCQQYDRLPLSFGGGTKVEIK	0.19 / 0.26 / 0.33 / 0.25 / 0.02 / 0.28	1 of 18 (1.83)

Excerpt, the first 3 entries:

VL	log10 Kd, replicates	control signals
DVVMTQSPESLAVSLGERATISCTIGQVMMYESRNKNSVAWYQQKAGQPPKLLIYQTSTREEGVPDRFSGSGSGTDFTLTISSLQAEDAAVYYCQDYDRLPLSFGGGTKVEIK	ND / ND / 2.31 / ND / ND / ND	0 of 18
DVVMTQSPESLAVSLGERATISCTLGQFTMQLSVNKNSVAWYQQKAGQPPKLLIYDANTSGDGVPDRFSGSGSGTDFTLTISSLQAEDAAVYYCQQYDRLPLSFGGGTKVEIK	2.64 / 0.82 / 1.10 / 0.43 / 0.72 / 0.89	1 of 18 (2.74)
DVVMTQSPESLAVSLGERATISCTISQSTQMESHNKNSVAWYQQKAGQPPKLLIYDLNVRGSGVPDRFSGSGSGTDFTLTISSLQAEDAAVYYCQQYDRLPLSFGGGTKVEIK	0.63 / 0.27 / 0.50 / 0.14 / 0.56 / 0.64	1 of 18 (2.90)

The authors' rule: three or more of the six replicates give a measured affinity, fewer mean a poor binder. The range of this assay differs from that of the first round, and the authors advise against merging the two. The parent sequence was in this pool as ten entries: three were never detected, three once, and four in most replicates, with averages from 0.34 to 2.37.

Data: MIT Lincoln Laboratory AlphaSeq set, Li et al. 2023, doi:10.1038/s41467-023-39022-2, as distributed in FLAb.